# Laboratory results: PubChem BioAssay (NCI)
# Values joined by “and” are separate entries in the source; they are usually repeats but may differ in a detail not shown here. Equal entries are not always repeated. The entries are a selection whose mix differs from that of the whole data set. Some salts and complexes are drawn in separate pieces, as the source files them; their charges need not balance. Active and inactive are the calls of the source. No stated cut-off is given here; in the data, active means growth inhibition above about 70%; inactive means the rest.
# Test: NCI Yeast Anticancer Drug Screen. Data for the cln2 rad14 strain (AID 165);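 further: 0% = growth equal to vehicle treated cultures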
# Conditions: S. cerevisiae cln2 rad14 strain, at 50.0 µM, hits give high values
row,SMILES,growth inhibition
1,CS/C(=C/[S+](C)C)c1ccccc1.O=[N+]([O-])c1cc([N+](=O)[O-])c(S(=O)(=O)[O-])c([N+](=O)[O-])c1,inactive: 29.7%
2,CC(C)OP(C)(=O)O.[Tl],inactive: -10.2%
3,COc1ccc([N+](=O)[O-])cc1[N+](=O)[O-],inactive: -36.2%
4,N/C(=N\[N+](=O)[O-])N(N)CCN(N)/C(N)=N/[N+](=O)[O-],inactive: 9.7%
5,NN/C(N)=N/[N+](=O)[O-],inactive: 13.8%
6,CCCCCCCCCCOP(=O)(Cl)CC (centres undefined),inactive: -5.85%
7,NCCO.O=[N+]([O-])c1cc([N+](=O)[O-])c(O)c([N+](=O)[O-])c1,inactive: -40.4%
8,COc1ccc2c3c1O[C@H]1C4(OC)CCC5(CC4C(C)(C)O)[C@@H](C2)N(C)CC[C@]315 (some centres undefined),inactive: 0.4%
9,CCOP(C)(=S)Oc1ccc([N+](=O)[O-])cc1 (centres undefined),inactive: 17.6%
10,CN/C(N)=N/[N+](=O)[O-],inactive: 18.2%
11,[C-]#[O+].[Co].[c-]1[c-][c-][cH-][c-]1.c1ccc([PH+](c2ccccc2)c2ccccc2)cc1,inactive: 19.1%
12,COC(=O)C(C)(C)C(OP(C)(=O)OC)=C(C)C (centres undefined),inactive: 24.4%
13,O=[N+]([O-])c1cc([N+](=O)[O-])cc([N+](=O)[O-])c1.c1ccc(CCc2cccc3c2ccc2ccccc23)cc1,inactive: -18.3%
14,O=[N+]([O-])c1cc([N+](=O)[O-])c(NNc2c([N+](=O)[O-])cc([N+](=O)[O-])cc2[N+](=O)[O-])c([N+](=O)[O-])c1,active: 97.8%
15,CCOC(=O)C(CCSC)Nc1nc2ccccc2o1.O=[N+]([O-])c1cc([N+](=O)[O-])c(O)c([N+](=O)[O-])c1 (centres undefined),inactive: 10.6%
16,O=[N+]([O-])C(F)(CCNCC(F)([N+](=O)[O-])[N+](=O)[O-])[N+](=O)[O-],active: 90.3%
17,CC1CN1.O=[N+]([O-])c1cc([N+](=O)[O-])c(S(=O)(=O)O)c([N+](=O)[O-])c1,inactive: 33%
18,CCC([N+](=O)[O-])[N+](=O)[O-],inactive: 7.3% and inactive: 16.2%
19,COc1ccc2c3c1OC1C4(OC)C=CC5(CC4C(C)=O)[C@@H](C2)N(C)CC[C@]315 (some centres undefined),inactive: 3.8%
20,NCc1ccccc1.O=[N+]([O-])c1cc([N+](=O)[O-])c(O)c([N+](=O)[O-])c1,inactive: -54.7%

row,SMILES,growth inhibition
1,COc1c([N+](=O)[O-])cc(Cc2cc([N+](=O)[O-])c(OC)c([N+](=O)[O-])c2)cc1[N+](=O)[O-],inactive: 0.35%
2,C/C=C/Sc1ccccn1.O=[N+]([O-])c1cc([N+](=O)[O-])c(O)c([N+](=O)[O-])c1,inactive: 18.8%
3,O=[N+]([O-])c1cc([N+](=O)[O-])c(O)c([N+](=O)[O-])c1.SCCCc1cccnc1,inactive: 6.8%
4,Br.C[N+]12CCCN(CC1)CC2.O=[N+]([O-])c1cc([N+](=O)[O-])c(O)c([N+](=O)[O-])c1.[Br-],inactive: 17.4%
5,CCOP(=O)(O)CC.[Eu],inactive: -18.9%
6,OCCSCCO,inactive: -31.4%
7,CCN(CC)CCOC(=O)C(O)(c1ccccc1)c1ccc(OC)cc1 (centres undefined),inactive: 1.65%
8,Cc1cc(N(CCCl)CCCl)ccc1C1OCCO1.[C-]#[O+].[C-]#[O+].[C-]#[O+].[Cr],inactive: 27.6%
9,CCCCOP(=S)(S)OCCCC.[Hg],inactive: 19.9%
10,O=C(CCN1CCCC(O)C1COC(=O)C(O)(c1ccccc1)c1ccccc1)NCc1ccccc1 (centres undefined),inactive: -5.55%
11,CC(C)OP(C)(=O)O.[Tm],inactive: -23.6%
12,CCN(CC)CCCN.O=[N+]([O-])c1cc([N+](=O)[O-])c(O)c([N+](=O)[O-])c1,inactive: -3.2%
13,O=[N+]([O-])c1cc([N+](=O)[O-])c(O)c([N+](=O)[O-])c1.c1ccc(C2CNCCN2)cc1,inactive: 11.8%
14,C=C1C(=O)C2CCN1CC2.O=[N+]([O-])c1cc([N+](=O)[O-])c(O)c([N+](=O)[O-])c1,inactive: 23.8%
15,CC(CO)NC1CCCC1.O=[N+]([O-])c1cc([N+](=O)[O-])c(O)c([N+](=O)[O-])c1,inactive: -20.2%
16,CN1CCC2(CC1)NC1CCN(C)CC1S2 (centres undefined),inactive: -1.15%
17,Cc1ccc(N=[N-])cc1.[C-]#[O+].[Mo].[c-]1[c-][c-][cH-][c-]1.c1ccc([PH+](c2ccccc2)c2ccccc2)cc1,inactive: -41%
18,CN([PH+](F)F)[PH+](F)F.CN([PH+](F)F)[PH+](F)F.CN([PH+](F)F)[PH+](F)F.CN([PH+](F)F)[PH+](F)F.CN([PH+](F)F)[PH+](F)F.[Ni].[Ni],inactive: 18.4%
19,Cc1ccc(N(C)C)cc1.O=[N+]([O-])c1cc([N+](=O)[O-])c(O)c([N+](=O)[O-])c1,inactive: 6.75%
